The values below come from PMC11547827, “Discovery of Cyclic Peptide Inhibitors Targeted on TNFα-TNFR1 from Computational Design and Bioactivity Verification” (Molecules, 2024).

Molecules are shown by their SMILES.

This data set deals with L929 cells. To be noted: 24 h, CCK-8. As for the experimental part:
L929 cells were seeded in a 96-well plate at a density of 8000 cells per well and cultured for 24 h under standard conditions. Then, the liquid in the wells was discarded, and 100 µL of medium containing different concentrations of cyclic peptides was added. After incubation for 24 h, the liquid in the well was discarded, and the medium was replaced with CCK-8 working solution (100 μL RPMI 1640 medium containing 5% CCK-8) and incubated in the dark for 2 h. The absorbance of each well at 450 nm was detected with a microplate reader. The same operation was performed with wells not seeded with cells as a blank group to eliminate systematic errors. Cell viability was calculated according to the following formula:(7) Cell viability(%)=(ODtest−ODblank)/(ODcontrol−ODblank)×100%

Take `CC(C)C[C@@H]1NC(=O)[C@H](Cc2c[nH]cn2)NC(=O)[C@H](CC(N)=O)NC(=O)[C@H](CCC(=O)O)NC(=O)[C@H](CO)NC(=O)[C@H](C)NC(=O)[C@H]([C@@H](C)O)NC(=O)[C@H](Cc2ccccc2)NC(=O)[C@H](CO)NC(=O)CNC(=O)[C@H](CO)NC(=O)[C@H](CCC(=O)O)NC(=O)[C@@H](N)CSSC[C@@H](C(=O)O)NC(=O)[C@H](Cc2c[nH]cn2)NC(=O)[C@H](CCCNC(=N)N)NC1=O` [R1_CC4]: the “cytotoxicity to L929 cells (in words)” value was “no significant cytotoxicity”.
